# Data taken from patent US20030158199A1, “Novel compounds for inhibition of Tie-2” (KYLIX, B.V., priority 2002, published 2003).
# Amino acid sequences for entries named in this document (tags omitted). Residues count along the entry.
# UniProt Q02763, 771-1124 limits assumed: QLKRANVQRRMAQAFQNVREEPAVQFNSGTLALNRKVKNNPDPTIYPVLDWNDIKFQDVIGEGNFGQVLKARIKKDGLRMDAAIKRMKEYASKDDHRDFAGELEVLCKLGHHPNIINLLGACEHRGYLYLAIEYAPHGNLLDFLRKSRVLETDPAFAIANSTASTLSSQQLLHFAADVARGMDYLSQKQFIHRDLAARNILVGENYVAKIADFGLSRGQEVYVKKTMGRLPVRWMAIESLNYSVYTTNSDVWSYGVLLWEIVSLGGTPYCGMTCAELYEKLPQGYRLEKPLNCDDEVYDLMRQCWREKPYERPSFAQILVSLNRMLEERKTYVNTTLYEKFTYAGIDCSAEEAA
# UniProt P35968, 807-1356 limits assumed: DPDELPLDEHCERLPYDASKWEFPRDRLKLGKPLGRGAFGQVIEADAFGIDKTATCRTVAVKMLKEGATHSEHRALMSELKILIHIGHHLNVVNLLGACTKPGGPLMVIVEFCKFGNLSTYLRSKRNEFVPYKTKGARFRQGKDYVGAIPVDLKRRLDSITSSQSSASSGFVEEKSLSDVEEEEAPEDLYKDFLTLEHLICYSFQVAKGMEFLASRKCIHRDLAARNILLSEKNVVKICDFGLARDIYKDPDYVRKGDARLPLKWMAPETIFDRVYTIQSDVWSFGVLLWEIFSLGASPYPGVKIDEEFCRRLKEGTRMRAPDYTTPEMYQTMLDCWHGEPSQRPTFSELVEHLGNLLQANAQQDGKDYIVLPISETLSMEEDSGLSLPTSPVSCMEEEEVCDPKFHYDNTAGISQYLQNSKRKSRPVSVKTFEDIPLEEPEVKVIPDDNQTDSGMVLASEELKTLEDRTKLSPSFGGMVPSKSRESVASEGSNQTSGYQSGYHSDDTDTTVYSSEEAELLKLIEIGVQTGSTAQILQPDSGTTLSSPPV
# UniProt P08581, 956-1390 limits assumed: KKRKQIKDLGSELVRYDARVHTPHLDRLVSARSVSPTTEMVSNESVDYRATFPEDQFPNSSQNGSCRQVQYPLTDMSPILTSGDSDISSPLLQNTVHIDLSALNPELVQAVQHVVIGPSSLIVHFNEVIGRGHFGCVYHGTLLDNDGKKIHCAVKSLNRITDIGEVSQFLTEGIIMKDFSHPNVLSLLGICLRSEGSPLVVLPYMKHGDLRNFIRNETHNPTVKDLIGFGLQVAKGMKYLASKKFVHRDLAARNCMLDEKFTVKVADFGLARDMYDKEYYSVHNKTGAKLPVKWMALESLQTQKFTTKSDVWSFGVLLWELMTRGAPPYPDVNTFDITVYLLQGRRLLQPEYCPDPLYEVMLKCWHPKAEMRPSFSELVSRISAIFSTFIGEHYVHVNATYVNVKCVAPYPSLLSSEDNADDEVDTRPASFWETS
# What was measured:
# [1] = biological target: Tie-2 (Homo sapiens, UniProt Q02763); assay: RTK ELISA, recombinant kinase domain, Tie-2; conditions: read-out: IC50 Tie-2, GST-Tie2/Tek (aa 771-1124) expressed in baculovirus infected insect cells, tested form: HBr
# Experimental: (§1) Follwing IC50 values were determined in the RTK ELISA using recombinant kinase domains of receptor tyrosine kinases which were expressed in baculovirus infected insect cells.
# (§2) Receptor Tyrosine Kinase Assay
# (§3) The following in vitro assays are used to determine the ability of different compounds to inhibit the transfer of phosphate groups onto tyrosine residues of downstream substrates. The level of phosphorylation is measured by a monoclonal antibody which is specific for phosphorylated tyrosine residues in an enzyme-linked immunosorbent assay (ELISA).
# (§4) The following recombinant kinases were expressed in baculovirus infected insect cells Sf9 and purchased from ProQuinase, Freiburg:
# (§5) If not otherwise indicated all steps are performed at room temperature.
# (§6) 1.) Coat wells of ELISA plate with […] Poly-Glu-Tyr 4:1 in 100 μl/well PBS buffer (137 mM NaCl, 3 mM KCl, 1.5 mM KH2PO4, 8.2 mM Na2HPO4) overnight at 4° C.
# (§7) 2.) Wash 2 times for 5 min each with PBS+0.05% Tween20 […]
# (§8) a) Add 5-30 ng/well kinase in 50 μl/well kinase buffer (100 mM HEPES pH 7.4, 100 mM NaCl, 0.1 mM Na3VO4) b) Add 25 μl/well compound (50 and 5 μM) in 5% DMSO c) Add 25 μl/well 100 μM ATP in 40 mM MnCl2
# (§9) 4.) Wash 3 times for 5 min each with PBS+0.05% Tween20
# (§10) 5.) Add anti phosphotyrosin antibody/HRP 1:10.000 in 100 μl/well PBS+0.05% Tween+0.1 BSA, incubate for 1 h […]
# (§11) 8.) Detect chemoluminescence signals in Tecan Genios reader
# [2] = biological target: KDR (Homo sapiens, UniProt P35968); assay: RTK ELISA, recombinant kinase domain, KDR; conditions: read-out: IC50 KDR, GST-KDR (aa807-1356) expressed in baculovirus infected insect cells, tested form: HBr
# Experimental: as §1, §2, §3, §4, §5, §6, §7, §8, §9, §10, §11
# [3] = biological target: c-Met (Homo sapiens, UniProt P08581); assay: RTK ELISA, recombinant kinase domain, c-Met; conditions: read-out: IC50 c-Met, GST-cMet (aa956-1390) expressed in baculovirus infected insect cells, tested form: HBr
# Experimental: as §1, §2, §3, §4, §5, §6, §7, §8, §9, §10, §11
smiles,measurement,setting,value
c1cncc(-c2nc(-c3ccc(N4CCCC4)cc3)cs2)c1,IC50,[1],< 1000 nM
same,IC50,[2],1000 nM
same,IC50,[3],3000 nM
